How the values were obtained:
HCV NS3 protease domain = target: T1, HCV NS3 protease domain (Hepatitis C virus genotype 1a, UniProt P27958); assay: FAC-MS (frontal affinity chromatography with in-line MS) binding to immobilized NS3
T1 construct: immobilization of the NS3 protease domain on streptavidin coated beads; made in house; host or cells: E. coli
Source text: An assay using frontal affinity chromatography (FAC) with an in-line mass spectrometer (MS) as described by Schriemer et al. 1998 Agnew. Chem. Int. Ed. 37, 3383-3387 (referred to as FAC-MS) was adapted to identify NS3 protease inhibitors. Briefly, a HCV NS3 protease domain was cloned into a site in a vector that allows for the recombinant NS3 protein to be biotinylated when expressed in E. coli. This provides for immobilization of the NS3 protease domain on streptavidin coated beads which are packed into a miniaturized column. The column is connected in-line to a mass spectrometer. This arrangement facilitates assaying combinatorial compounds individually from a library of peptides for activity in binding the immobilized NS3 protease domain. As the library is continually infused through the column, each compound produces a sigmoidal curve as its elution profile.
The inventors first examined the ability of mutant NS4A peptides to bind to NS3 using the FAC-MS assay described in Example 1. The sequence of the peptides described here is described by the wild-type residue modified, the position of the residue in the wildtype NS4A polypeptide, and the residue substituted at that position. […] “Pen” refers to Penacillamine; “chA” refers to β-cyclohexylalanine; “t” refers to “tert” (so that, for example, “t-L” refers to tert-leucine. […]

The chains behind the UniProt entries cited, without tags or fusion partners. Residues count along the entry.
UniProt P27958, 1027-1208: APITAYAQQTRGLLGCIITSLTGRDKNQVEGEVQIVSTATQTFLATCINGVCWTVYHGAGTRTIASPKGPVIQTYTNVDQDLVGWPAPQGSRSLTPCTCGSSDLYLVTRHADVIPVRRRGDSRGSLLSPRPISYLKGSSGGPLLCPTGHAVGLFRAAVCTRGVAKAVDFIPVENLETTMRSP
UniProt P27958, 1027-1207: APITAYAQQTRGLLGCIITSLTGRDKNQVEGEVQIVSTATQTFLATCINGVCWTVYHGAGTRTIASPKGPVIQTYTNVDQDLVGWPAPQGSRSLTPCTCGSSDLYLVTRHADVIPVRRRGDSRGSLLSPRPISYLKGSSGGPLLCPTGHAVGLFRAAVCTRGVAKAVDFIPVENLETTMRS

NS3 protease = NS3 protease (Hepatitis C virus genotype 1a, UniProt P27958); assay: Rates of NS3 in the presence of short NS4A peptides; format: biochemical, HCV; conditions: substrate 5A-pNA subsaturating; 66 to 360 μM peptide
Description: The ability of the short peptides to activate the NS3 protease was tested at several concentrations between 66 and 360 μM peptide. The concentration of substrate 5A-pNA was subsaturating.

CC[C@H](C)[C@H](NC(=O)[C@H](CCCNC(=N)N)NC(=O)CN)C(=O)N[C@H](C(=O)N[C@@H](CC(C)C)C(=O)O)C(C)C [GRIVL]
Kd (HCV NS3 protease domain): 178 µM
Rate (NS3 protease): 1.76 µmol/min/mg

Reference: patent publication US20030176689A1, “Inhibitors of hepatitis C virus protease” (priority 2001, published 2003)
